For test [1], the target named is Human HDAC9 (Homo sapiens, UniProt Q9UKV0). Nature of the test: HDAC9 biochemical assay, class IIa-specific substrate. The following applies: read-out: HDAC Isoform IC50 (nM) 9.
Test [2] has as its target Human HDAC4 (Homo sapiens, UniProt P56524). Nature of the test: HDAC4 biochemical assay, class IIa-specific substrate. The note with it: read-out: HDAC Isoform IC50 (nM) 4.
Test [3] deals with Recombinant human HDAC6 (Homo sapiens, UniProt Q9UBN7). Nature of the test: HDAC6 biochemical assay, AMC-labeled peptide substrate. The note with it: read-out: HDAC Isoform IC50 (nM) 6.
The target in test [4] is Human HDAC5 (Homo sapiens, UniProt Q9UQL6). Nature of the test: HDAC5 biochemical assay, class IIa-specific substrate. The note with it: read-out: HDAC Isoform IC50 (nM) 5.
The target in test [5] is Human HDAC1 (Homo sapiens, UniProt Q13547). Nature of the test: HDAC1 biochemical assay, AMC-labeled peptide substrate. The following applies: read-out: HDAC Isoform IC50 (nM) 1.
The target in test [6] is Human HDAC7 (Homo sapiens, UniProt Q8WUI4). Nature of the test: HDAC7 biochemical assay, class IIa-specific substrate. The following applies: read-out: HDAC Isoform IC50 (nM) 7.

By UniProt entry, the sequences of proteins in these tests, tags left out. Residues count along the entry.
UniProt Q9UKV0, 604-1066 isoform 5 limits assumed: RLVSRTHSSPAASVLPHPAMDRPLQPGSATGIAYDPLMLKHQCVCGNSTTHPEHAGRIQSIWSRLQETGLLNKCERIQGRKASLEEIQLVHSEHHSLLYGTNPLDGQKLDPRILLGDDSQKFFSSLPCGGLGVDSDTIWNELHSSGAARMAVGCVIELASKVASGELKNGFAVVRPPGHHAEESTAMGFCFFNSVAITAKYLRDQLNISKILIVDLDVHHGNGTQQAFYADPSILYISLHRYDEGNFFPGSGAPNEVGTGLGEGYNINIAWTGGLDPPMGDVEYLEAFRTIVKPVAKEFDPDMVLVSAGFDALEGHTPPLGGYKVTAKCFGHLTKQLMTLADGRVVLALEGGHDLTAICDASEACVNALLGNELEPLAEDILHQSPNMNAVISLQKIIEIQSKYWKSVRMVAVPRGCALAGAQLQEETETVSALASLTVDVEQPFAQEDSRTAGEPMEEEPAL
UniProt P56524, 627-1084 limits assumed: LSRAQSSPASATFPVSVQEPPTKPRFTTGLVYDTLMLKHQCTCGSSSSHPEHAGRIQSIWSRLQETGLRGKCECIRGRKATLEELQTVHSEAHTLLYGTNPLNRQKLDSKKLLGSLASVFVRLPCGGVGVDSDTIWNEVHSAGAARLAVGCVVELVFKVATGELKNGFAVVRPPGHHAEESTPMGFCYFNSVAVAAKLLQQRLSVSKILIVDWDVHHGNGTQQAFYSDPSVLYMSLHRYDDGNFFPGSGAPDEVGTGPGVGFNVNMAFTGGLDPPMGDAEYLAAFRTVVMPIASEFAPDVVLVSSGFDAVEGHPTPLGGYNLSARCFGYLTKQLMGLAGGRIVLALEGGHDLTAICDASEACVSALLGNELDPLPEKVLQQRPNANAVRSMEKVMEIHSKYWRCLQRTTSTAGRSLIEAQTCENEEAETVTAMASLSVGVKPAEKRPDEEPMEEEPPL
UniProt Q9UBN7, whole entry: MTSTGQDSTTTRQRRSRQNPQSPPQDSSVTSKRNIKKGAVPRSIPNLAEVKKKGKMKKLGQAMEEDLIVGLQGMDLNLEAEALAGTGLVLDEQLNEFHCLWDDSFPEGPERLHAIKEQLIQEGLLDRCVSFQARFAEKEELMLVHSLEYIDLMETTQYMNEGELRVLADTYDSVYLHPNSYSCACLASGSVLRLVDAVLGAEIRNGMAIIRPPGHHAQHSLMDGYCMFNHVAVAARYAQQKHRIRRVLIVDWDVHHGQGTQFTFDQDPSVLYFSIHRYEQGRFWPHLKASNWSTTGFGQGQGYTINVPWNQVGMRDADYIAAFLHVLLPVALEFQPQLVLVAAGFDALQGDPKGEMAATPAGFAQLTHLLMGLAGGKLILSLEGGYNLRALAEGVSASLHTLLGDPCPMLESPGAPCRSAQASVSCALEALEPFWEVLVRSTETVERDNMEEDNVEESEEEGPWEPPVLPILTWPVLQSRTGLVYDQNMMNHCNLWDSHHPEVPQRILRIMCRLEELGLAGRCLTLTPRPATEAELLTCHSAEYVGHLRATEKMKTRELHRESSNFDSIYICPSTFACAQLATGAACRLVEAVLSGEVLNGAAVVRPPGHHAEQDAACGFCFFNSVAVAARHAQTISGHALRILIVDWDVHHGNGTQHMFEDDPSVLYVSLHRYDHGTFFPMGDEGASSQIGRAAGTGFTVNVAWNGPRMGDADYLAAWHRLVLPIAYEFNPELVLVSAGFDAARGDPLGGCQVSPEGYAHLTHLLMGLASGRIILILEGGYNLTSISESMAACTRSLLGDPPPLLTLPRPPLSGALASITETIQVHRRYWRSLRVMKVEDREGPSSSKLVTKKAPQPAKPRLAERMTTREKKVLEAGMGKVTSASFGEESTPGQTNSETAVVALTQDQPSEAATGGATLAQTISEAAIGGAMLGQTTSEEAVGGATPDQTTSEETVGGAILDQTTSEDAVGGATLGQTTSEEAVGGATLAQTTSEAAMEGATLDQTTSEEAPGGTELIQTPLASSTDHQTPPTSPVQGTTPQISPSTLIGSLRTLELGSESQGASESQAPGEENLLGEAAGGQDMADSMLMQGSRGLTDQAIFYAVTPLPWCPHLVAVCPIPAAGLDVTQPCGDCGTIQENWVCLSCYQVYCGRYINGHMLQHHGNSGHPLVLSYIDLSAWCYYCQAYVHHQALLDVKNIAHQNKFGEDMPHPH
UniProt Q9UQL6, 656-1122 limits assumed: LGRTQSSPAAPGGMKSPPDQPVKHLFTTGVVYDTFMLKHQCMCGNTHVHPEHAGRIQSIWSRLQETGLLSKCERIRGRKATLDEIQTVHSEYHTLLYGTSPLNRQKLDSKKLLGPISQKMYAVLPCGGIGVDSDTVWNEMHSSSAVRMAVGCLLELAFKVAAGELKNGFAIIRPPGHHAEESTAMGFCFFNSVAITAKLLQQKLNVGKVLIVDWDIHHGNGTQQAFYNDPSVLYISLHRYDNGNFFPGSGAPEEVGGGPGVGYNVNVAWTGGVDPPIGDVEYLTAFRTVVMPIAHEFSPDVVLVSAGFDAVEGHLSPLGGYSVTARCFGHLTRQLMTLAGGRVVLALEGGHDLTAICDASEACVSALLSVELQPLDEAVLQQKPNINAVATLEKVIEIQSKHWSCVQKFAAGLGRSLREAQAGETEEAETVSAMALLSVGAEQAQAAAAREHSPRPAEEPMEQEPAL
UniProt Q13547, whole entry: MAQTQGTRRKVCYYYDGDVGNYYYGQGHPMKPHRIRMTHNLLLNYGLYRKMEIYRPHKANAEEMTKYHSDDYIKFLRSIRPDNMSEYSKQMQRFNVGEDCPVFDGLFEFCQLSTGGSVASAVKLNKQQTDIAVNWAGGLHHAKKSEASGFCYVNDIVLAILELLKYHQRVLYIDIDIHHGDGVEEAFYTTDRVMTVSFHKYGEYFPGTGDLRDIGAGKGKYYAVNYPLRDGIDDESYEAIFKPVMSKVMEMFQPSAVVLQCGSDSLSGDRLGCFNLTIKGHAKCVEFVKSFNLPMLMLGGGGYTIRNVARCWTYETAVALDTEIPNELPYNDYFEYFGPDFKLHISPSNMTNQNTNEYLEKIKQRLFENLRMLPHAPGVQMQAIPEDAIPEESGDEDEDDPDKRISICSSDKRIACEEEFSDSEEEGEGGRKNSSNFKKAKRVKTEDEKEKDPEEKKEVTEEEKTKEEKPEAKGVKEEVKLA
UniProt Q8WUI4, 518-952 limits assumed: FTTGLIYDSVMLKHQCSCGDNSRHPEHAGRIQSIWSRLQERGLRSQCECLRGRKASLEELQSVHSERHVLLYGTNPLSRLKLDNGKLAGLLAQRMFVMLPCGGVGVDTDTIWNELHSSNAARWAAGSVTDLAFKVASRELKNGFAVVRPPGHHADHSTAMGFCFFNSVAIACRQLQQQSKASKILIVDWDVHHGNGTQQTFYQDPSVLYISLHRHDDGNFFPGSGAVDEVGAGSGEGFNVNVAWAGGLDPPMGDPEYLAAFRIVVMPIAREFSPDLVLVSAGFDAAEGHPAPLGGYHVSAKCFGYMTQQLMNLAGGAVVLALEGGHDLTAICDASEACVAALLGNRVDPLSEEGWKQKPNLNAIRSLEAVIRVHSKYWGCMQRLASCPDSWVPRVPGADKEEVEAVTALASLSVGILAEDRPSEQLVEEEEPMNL

Molecules are shown by their SMILES. Bounds are passed on as bounds.

Take `COC1CN(C(=O)c2cnnc(N(Cc3ccc(-c4noc(C(F)(F)F)n4)s3)c3cc(C(F)(F)F)cnn3)c2)C1`: the half-maximal inhibitory concentration (IC50) (usually the concentration at which inhibition is half-maximal) in test [1] was over 10000 nM; in test [2], under 10000 nM; in test [3] it was under 500 nM; in test [4], under 10000 nM; in test [5] it was over 10000 nM; in test [6] it was under 10000 nM.
